Earlier results in paper PMC4054929 (Bioorganic & medicinal chemistry, 2014).

System: PDE10A
Settings: affinity of papaverine for PDE10A; cited from earlier work

## COc1ccc(Cc2nccc3cc(OC)c(OC)cc23)cc1OC [papaverine, reference compound]
  IC50: 36 nM
